Consider 1 compound from ChEMBL document CHEMBL1773020, “Discovery of fused bicyclic agonists of the orphan G-protein coupled receptor GPR119 with in vivo activity in rodent models of glucose control” (Bioorg Med Chem Lett, 2011).

In this experiment the target is T1, Glucose-dependent insulinotropic receptor (Homo sapiens) (UniProt Q8TDV5).
T1 sequence (whole entry): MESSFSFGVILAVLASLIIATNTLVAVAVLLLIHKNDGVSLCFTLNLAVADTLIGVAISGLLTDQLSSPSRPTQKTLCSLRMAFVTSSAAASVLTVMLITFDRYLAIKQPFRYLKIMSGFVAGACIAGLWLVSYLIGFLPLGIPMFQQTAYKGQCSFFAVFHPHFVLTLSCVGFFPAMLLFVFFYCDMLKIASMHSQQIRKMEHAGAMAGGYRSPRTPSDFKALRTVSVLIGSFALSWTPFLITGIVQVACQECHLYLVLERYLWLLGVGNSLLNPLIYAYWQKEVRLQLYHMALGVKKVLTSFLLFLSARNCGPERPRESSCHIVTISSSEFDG
Briefly: Agonist activity at human GPR119 by melanophore assay relative to AR231453. It counts as functional. Put shortly: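 Melanophores transfected with human GPR119. Apparent Emax is the curve height normalized to the positive control AR231453, which is defined as a full agonist (100% efficacy).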

For the compound `CC(C)OC(=O)N1CCC(Oc2ncnc3c2cnn3-c2ccc(S(C)(=O)=O)cc2F)CC1`, the Emax (usually the size of the effect at its maximum, as opposed to the concentration needed) came to 89%.
